Data: patent US4584272A

Tests used:
Assay in all cases: purified protein, by the assay type
Settings in all cases: pH 7.2
[1] = system: Nc1ncnc2c1ncn2[C@@H]1O[C@H](COP(=O)(O)O)[C@@H](O)[C@H]1O
[2] = system: Nc1ncnc2c1ncn2[C@@H]1O[C@H](COP(=O)(O)OP(=O)(O)O)[C@@H](O)[C@H]1O
[3] = system: Nc1ncnc2c1ncn2[C@@H]1O[C@H](COP(=O)(O)OP(=O)(O)OP(=O)(O)O)[C@@H](O)[C@H]1O

heat-resistant adenylate kinase of the invention, from a bacterium of the genus Bacillus (Bacillus stearothermophilus) (Geobacillus stearothermophilus)
Km [1]: 17 µM | Km [2]: 50 µM | Km [3]: 40 µM
